Laboratory results reported in ChEMBL document CHEMBL5352402, “Discovery of novel non-nucleoside inhibitors with high potency and selectivity for DNA methyltransferase 3A” (Eur J Med Chem, 2022).

These compounds were tested against DNMT3A2/3L complex (Homo sapiens, UniProt Q9Y6K1) (assay: Inhibition of N-terminal His-tagged human DNMT3A (623 to 912 residues)/N-terminal GST-tagged human DNMT3L (160 to 387 residues) co-expressed in baculovirus infected Sf9 cells assessed as DNA methylation using DNA oligonucleotide IDT-01 as substrate preincubated for 15 mins followed by substrate addition in presence of [3H]-SAM and measured after 4 hrs by radioactive methylation assay).

| Structure (SMILES) | IC50 |
| --- | --- |
| Cc1oc2ncn(CCN3CCCC3)c(=O)c2c1C(=O)Nc1ccc(S(N)(=O)=O)nc1 | 390 nM |
| Cc1oc2ncn(CCN(C)C)c(=O)c2c1C(=O)Nc1ccc(S(N)(=O)=O)nc1 | 750 nM |
| Cc1oc2ncn(CCN3CCCCC3)c(=O)c2c1C(=O)Nc1ccc(S(N)(=O)=O)nc1 | 700 nM |
